Only a part is listed here, and it is no random draw. Active and inactive are the calls of the source.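 The calls were made as follows: active = activation above its plate's cutoff, the mean activation of test wells on that plate plus 3 SD (cut at about 19% in these data); inactive = the rest.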
Test system: transient receptor potential cation channel N1 (TRPN1/NompC), Danio rerio
Experiment: zebrafish TRPN1 channel agonists, primary screen, cell-based, HEK293, calcium fluorescence (AID 1424);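 also: 0% = DMSO alone and 100% = 87 µM carbachol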
Details: HEK293 zebrafish TRPN1-YFP, Fluo-8 calcium fluorescence; at 3 µM; stronger effect = higher value; 100% = response to 87 µM carbachol
Procedure, shortened: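 Assay system: Zebrafish TRPN1-YFP in HEK293 cells | Incubation: Dye loading 1 h at 37 °C, then 30 min room temperature | Measured by: Kinetic Fluo-8 fluorescence, ex 470-495, em 515-575 nm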

Row | SMILES | activation
1 | Cc1ccc(NCCc2c([N+](=O)[O-])cc([N+](=O)[O-])cc2[N+](=O)[O-])cc1 | inactive: 0.25%
2 | CCCOP(=S)(Nc1nc(N)cc(=O)[nH]1)OCCC | inactive: 2.28%
3 | O=[As](O)(c1cccc(O)c1)c1cccc(O)c1 | inactive: 1.44%
4 | Cc1cccc(OCC(=O)OC2CN3CCC2CC3)c1 (configuration not stated) | inactive: -0.46%
5 | O=C(OC1CN2CCC1CC2)c1ccc(Cl)cc1 (configuration not stated) | inactive: 0.62%
6 | COc1cc(C(=O)NCC2(N3CCOCC3)CCCCC2)cc(Cl)c1OC(C)C | inactive: -2.64%
7 | O=[As](O)(O)c1cccnc1 | inactive: 0.83%
8 | CCOP1(=S)c2c(C)nn(CCC#N)c2N=C(c2ccc(F)cc2)N1C (configuration not stated) | inactive: -0.05%
9 | O=[N+]([O-])c1ccc2c(c1)nnn2O | inactive: 0.19%
10 | Nc1ccccc1[As](=O)(O)c1ccccc1 | inactive: -0.01%
11 | O=C(O)COc1ccc([As](=O)(O)O)cc1[N+](=O)[O-] | inactive: -0.8%
12 | CCOP1(=S)c2c(C)nn(CCC#N)c2N=C(c2ccccc2F)N1C (configuration not stated) | inactive: -0.71%
13 | O=P(Nc1nccs1)(c1ccccc1)c1nc2ccccc2s1 (configuration not stated) | inactive: -1.52%
14 | O=P(Nc1nccs1)(Oc1ccccc1)Oc1ccccc1 | inactive: 0.5%
15 | CS(=O)(=O)c1cc([N+](=O)[O-])c2no[n+]([O-])c2c1 | inactive: 0.93%
16 | Nc1cccc([As](=O)(O)c2ccccc2)c1 | inactive: 0.43%
17 | O=P1(Nc2ccc(Br)cn2)COc2ccccc2OC1 | inactive: 1.93%
18 | O=[As](O)(c1cccs1)c1cccs1 | inactive: 1.49%
19 | Cc1ccc(OCC(=O)OC2CN3CCC2CC3)cc1 (configuration not stated) | inactive: 0.02%
20 | O=P1(Nc2ncccn2)COc2ccccc2OC1 | inactive: 0.73%
21 | CN(C)C1(CNC(=O)c2ccc(S(C)(=O)=O)cc2)CCCCC1 | inactive: 0.45%
22 | O=C(/C=C/c1ccccc1)OC1CN2CCC1CC2 (configuration not stated) | inactive: -0.66%
23 | Cc1nn(-c2ccccc2)c2c1P(=O)(N1CCOCC1)N(C)C(c1ccccc1)=N2 (configuration not stated) | inactive: -0.83%

Row | SMILES | activation
24 | CC1CCC(C(C)C)C(OP(=O)(Nc2ccccn2)c2ccccc2)C1 (configuration not stated) | inactive: -1.27%
25 | CC(C)/C=N\N=C(\N)N[N+](=O)[O-] | inactive: 0.75%
26 | CN(C(=O)Cc1ccc(Cl)c(Cl)c1)[C@@H]1CCCC[C@H]1N1CCCC1 | inactive: -1.06%
27 | O=[As](O)(c1ccccc1Br)c1ccccc1Br | inactive: 1.22%
28 | CC1(CBr)Cn2c(nc3ccccc3c2=O)S1 (configuration not stated) | inactive: -0.08%
29 | Clc1n[nH]nc1-c1nn[nH][15n]1 | inactive: 0.15%
30 | CC(C)(C)C(=O)NC(Sc1ncccn1)C(Cl)(Cl)Cl (configuration not stated) | inactive: -0.67%
31 | O=P1(Nc2ccccn2)COc2ccccc2OC1 | inactive: -0.76%
32 | CCOP(=O)(Nc1ccc(C)cn1)OCC | inactive: 1.47%
33 | c1nnnn1CCn1cnnn1 | inactive: 1.09%
34 | CC(C)C(=O)NC(Sc1ccccc1)C(Cl)(Cl)Cl (configuration not stated) | inactive: -2.38%
35 | O=P(Nc1nccs1)(c1ccccc1)c1ccccc1 | inactive: 1.66%
36 | O=C(OC1CN2CCC1CC2)c1cccc(Cl)c1 (configuration not stated) | inactive: 0.74%
37 | Nc1ccc([As](=O)(O)c2ccc([N+](=O)[O-])cc2)cc1 | inactive: 0.77%
38 | C(Cc1nn[nH]n1)Cc1nn[nH]n1 | inactive: 2.3%
39 | O=[As](O)(c1ccccc1)c1ccc(O)cc1 | inactive: 0.7%
40 | O=[N+]([O-])c1ncn(CCn2cnc([N+](=O)[O-])n2)n1 | inactive: -0.63%
41 | CC(=O)NC(SC(=S)N(C)C)C(Cl)(Cl)Cl (configuration not stated) | inactive: 0.69%
42 | O=P(Nc1nc2ccccc2s1)(c1ccccc1)c1ccccc1 | inactive: -0.14%
43 | O=P(Nc1ccccn1)(c1ccc(Br)cc1)c1ccc(Br)cc1 | inactive: 0.13%
44 | Cc1ccccc1OP(=O)(Nc1ccccn1)Oc1ccccc1C | inactive: -0.51%
45 | CN(C)C(=O)Oc1noc2ccccc12 | inactive: 1.05%
46 | O=c1c2cc([N+](=O)[O-])ccc2[nH]c2c([N+](=O)[O-])cc([N+](=O)[O-])cc12 | active: 23.3%

Row | SMILES | activation
47 | CCC(=O)N1C2C3N(C(=O)CC)C1C1N(C(=O)CC)C(C(N1C(=O)CC)N3C(=O)CC)N2C(=O)CC | inactive: -0.04%
48 | COC(=O)c1cc2c(s1)N=C(c1ccccc1)N(C)P2(=O)N1CCOCC1 (configuration not stated) | inactive: 0.43%
49 | Cc1ccc(OP(=O)(Nc2ccccn2)Oc2ccc(C)cc2)cc1 | inactive: -0.18%
50 | CC(=O)NC(SC(=S)N(CC(C)C)CC(C)C)C(Cl)(Cl)Cl (configuration not stated) | inactive: 1.01%
51 | c1ccc(-c2nn[nH]n2)c(-c2nn[nH]n2)c1 | inactive: 1.58%
52 | CCOC(=O)NC(Sc1ccccc1)C(Cl)(Cl)Cl (configuration not stated) | inactive: 0.02%
53 | Cc1ccc(NP(=O)(Oc2cccc(C)c2)Oc2cccc(C)c2)nc1 | inactive: -0.4%
54 | CCNC(=S)/N=C(\N)N[N+](=O)[O-] | inactive: -0.44%
55 | O=C(NC1CCS(=O)(=O)C1)NP(=S)(Oc1ccccc1)Oc1ccccc1 (configuration not stated) | inactive: -1.6%
56 | CC(=O)Nc1ccc([As](=O)(O)O)c(O)c1 | inactive: 0.72%
57 | CC(=O)Nc1ccc(Oc2c([N+](=O)[O-])cc([N+](=O)[O-])cc2[N+](=O)[O-])cc1 | inactive: -0.73%
58 | CC(C)(C)C(=O)NC(Sc1ccccc1)C(Cl)(Cl)Cl (configuration not stated) | inactive: -3.44%
59 | O=P1(Nc2nc3ccc(Cl)cc3s2)COc2ccccc2O1 (configuration not stated) | inactive: -0.7%
60 | CCOc1ccc(C2=NCC(CBr)S2)cc1 (configuration not stated) | inactive: 2.47%
61 | Oc1ccccc1CNc1ccccn1 | inactive: -0.14%
62 | Cc1c2non([O-])c-2c(C)[n+](=O)[n+]1[O-] | inactive: 4.23%
63 | O=C(NC(Sc1ccncn1)C(Cl)(Cl)Cl)c1ccccc1 (configuration not stated) | inactive: 0.88%
64 | CC(C)CC(=O)NC(Sc1ccc(Cl)cc1)C(Cl)(Cl)Cl (configuration not stated) | inactive: -1.85%
65 | Nc1cc(N)c2nonc2c1[N+](=O)[O-] | inactive: -0.12%
66 | Clc1ccc(Cl)c(NC2=NCC(CBr)S2)c1 (configuration not stated) | inactive: -0.07%
67 | CN1CCCC(OC(=O)C(c2ccccc2)c2ccccc2)C1 (configuration not stated) | inactive: 0.39%
